Yeast mating assay B: variants of the scFv Ab-14

Data: MIT Lincoln Laboratory AlphaSeq set, Li et al. 2023, doi:10.1038/s41467-023-39022-2, as distributed in FLAb.

All variants were tested on one target, the spike HR2 peptide PDVDLGDISGINAS (SARS-CoV-2).

Ab-14 is the parent antibody, in scFv form: VH, then a 15-residue (Gly4Ser)3 linker, then VL. The heavy chain is unchanged in all variants.
VH: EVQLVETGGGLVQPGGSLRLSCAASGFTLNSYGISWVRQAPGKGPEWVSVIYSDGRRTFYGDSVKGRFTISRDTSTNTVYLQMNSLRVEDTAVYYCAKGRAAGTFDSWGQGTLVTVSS
VL: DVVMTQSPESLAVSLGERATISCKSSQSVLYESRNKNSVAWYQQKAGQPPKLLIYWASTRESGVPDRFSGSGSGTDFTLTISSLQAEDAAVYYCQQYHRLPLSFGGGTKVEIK

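Phage display of a naive human antibody library on the peptide gave the parent. The variants were designed computationally from a first round of random CDR variants and then made and measured. Several design methods are mixed in this list. The assay is AlphaSeq: two haploid yeast populations carry antibody and antigen on their surface. Pairs that bind mate more often; barcode pairs of the diploids are counted by sequencing. The ratio of observed to expected reads was calibrated, replicate by replicate, on BCL2-family standards whose Kd was known from biolayer interferometry. The assay was run in six technical replicates.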

Variants are written as CDR1, CDR2 and CDR3 of the light chain (limits as in the source). Parent: KSSQSVLYESRNKNSVA, WASTRES, QQYHRLPLS.
This list holds designs with more than six substitutions.
The Kd shown is the geometric mean over detected replicates; a lower Kd is a better binder.
As a blank, each scFv also met three strains without target: over all light chain designs, 4% of these pairings were detected, typically at 430 nM and seldom below 38 nM.
The authors' rule: three or more of the six replicates give a measured affinity, fewer mean a poor binder.
The parent sequence was in this pool as ten entries: three were never detected, three once, and four in most replicates, with averages from 2.2 nM to 240 nM.
Values of this round are not directly comparable with the first-round values of the same sequences.

The variant KLQQVTGYESYVRNSVA, QMSTRAE, QDYNRLPLS gave 2.9 nM (6 of 6 replicates).
The variant KALQSQEYESRNKNSVA, HASTRED, QQYHCLPLS gave 4.5 nM (6 of 6 replicates).
The variant TISQMWLGESRNRNSVA, QTSTRES, QSYDRLPLS gave 4.5 nM (6 of 6 replicates).
The variant KLSHSVLYESANPNFVM, WASTRES, QDYHRLPLS gave 4.7 nM (6 of 6 replicates).
The variant KLRQVTEWESFDKNSVA, QTETREN, QDYDRLPLS gave 250 nM (2 of 6 replicates).
The variant HLSQSQQYESRNKNSVA, NASTRLH, QQYHRLPLS gave 1.9 nM (6 of 6 replicates).
The variant KISQSVLYESRAQNAVA, EASTRCD, QQYHRLPLS gave 1.0 nM (6 of 6 replicates).
The variant RIQEQMQKPDNAGQNVA, ENQTVID, QQYAHLPLS gave 400 nM (5 of 6 replicates).
The variant QMGYALFHEDAKKKSIA, ENTVKVY, QQYAKLPLT gave 1.8 nM (6 of 6 replicates).
The variant QIFGKLQEHGNQKANVA, QGVESRN, QQYFRLPLT gave 5.6 nM (4 of 6 replicates).
The variant KVSQSVCYEDRVKNSVA, NASDRMS, QQYHRLPLS gave 3.8 nM (6 of 6 replicates).
The variant ALTAHRLVAIEAKNSIA, NAVMRYD, QQYAQLPLM gave 360 pM (6 of 6 replicates).
The variant KLQQQDEYESRNKNSVA, NASTRSQ, QQYHRLPLS gave 520 pM (6 of 6 replicates).
The variant HMSQVTMYGYWNYNSVA, QTSTREE, QQYDRLPLS gave 27 nM (6 of 6 replicates).
The variant KSEMLYYYGDRNKNSVA, QASTRES, QQYHRLPLS gave 670 pM (6 of 6 replicates).
The variant KLSEIAHFESKKKNSVA, ENSTREE, QQYDHLPLS gave 890 nM (2 of 6 replicates).
The variant KISINQSNYGGMRSAIA, NTNLARM, QQYFHLPLM gave 17 nM (6 of 6 replicates).
The variant TIGATLMYGMRNRSNVA, EVSERLN, QQYDRLPLL gave 110 nM (5 of 6 replicates).
The variant ILQQSMLYESRWWNSVA, DASVRED, QQYHRLPLS gave 3.1 nM (6 of 6 replicates).
The variant KFQIGNNQGHSMEHNIA, EGTYAEE, QQYARLPLQ gave 2.0 nM (6 of 6 replicates).
The variant MISDLTTYGSRNKNSVA, DLSTRGS, QQYHRLPLS gave 730 pM (6 of 6 replicates).
The variant SMIPFDNQIMKGTNNIA, HTSVRAS, QQYMRLPFV gave 1.2 nM (6 of 6 replicates).
The variant KLFQSYEYESRNKNSVA, NASQREW, QQYHRLPLS gave 1.9 nM (6 of 6 replicates).
The variant TISNMFMMENQFKNSVA, QASTRLN, QCYDRLPLS gave 880 nM (1 of 6 replicates).
The variant KVQLGLERYNGDYSSVA, NETQKGD, QQYFQLPLG gave 32 nM (6 of 6 replicates).
The variant MISQVMNTLSRQGNNVA, DLAERED, QQYFRLPLS gave 51 nM (5 of 6 replicates).
The variant KLGSMVLLEHGNKNNIA, QQSTREE, QQYDRLPLS gave 2.9 nM (6 of 6 replicates).
The variant KISMLINTTFEQSNNVA, EMATREQ, QQYNRLPLS gave 10 nM (6 of 6 replicates).
The variant KVSEFMRGLMMRKDSIA, DNVTRSN, QQYDRLPLS gave 15 nM (6 of 6 replicates).
The variant MMSMGFLGGMRAKNNVA, QEETRES, QQYHRLPLI gave 52 nM (4 of 6 replicates).
The variant KQSQSGMMESRNQNQVA, EASTRLS, QQYHRLPLS gave 8.5 nM (6 of 6 replicates).
The variant MISQVLNMATKTGNNVA, DLQEREN, QQYFRLPLS gave 28 nM (6 of 6 replicates).
The variant KLSMITGHMSMSRNNVA, EMETREN, QQYDRLPLS gave 5.8 nM (6 of 6 replicates).
The variant IISQVDSYLSRNTNSIA, DQSTRGS, QQYDRLPLS gave 3.9 nM (6 of 6 replicates).
The variant TMSQMFEGLSTSKNPVA, QVSTREE, QQYHRLPLS gave 16 nM (6 of 6 replicates).
The variant KVSEFMRGLMQKTDSIA, DNVTREN, QQYDRLPLS gave 1.3 µM (6 of 6 replicates).
The variant HMSQVTMYGMWMRNSVA, QTSTREA, QQYDRLPLS gave 4.9 nM (6 of 6 replicates).
The variant ILSQSVLMGSHLKNSVA, QAETRFS, QQYHRLPLS gave 3.7 nM (6 of 6 replicates).
The variant KLSQSTLYEQRMCNSVA, NASQRES, QQYHRLPLS gave 1.2 nM (6 of 6 replicates).
The variant KLTMITGLEKVSTNNVA, EMETREE, QQYNRLPLS gave 2.6 nM (6 of 6 replicates).
The variant KITWYELEMREPGSAVA, AAEVRAN, QQYWRLPLE gave 8.4 nM (6 of 6 replicates).
The variant MISNVMNTLTRQGNNVA, DLQNRED, QQYFRLPLS gave 19 nM (6 of 6 replicates).
The variant KISQMVRVGATHSNSIA, EEVTRAK, QQYHRLPLA gave 23 nM (6 of 6 replicates).

Extract of 6 entries:

CDR-L1,CDR-L2,CDR-L3,Kd (apparent),replicates with signal
KQSQSGMMESRNQNQVA,EASTRLS,QQYHRLPLS,8.5 nM,6/6
KLQQVTGYESYVRNSVA,QMSTRAE,QDYNRLPLS,2.9 nM,6/6
KITWYELEMREPGSAVA,AAEVRAN,QQYWRLPLE,8.4 nM,6/6
TMSQMFEGLSTSKNPVA,QVSTREE,QQYHRLPLS,16 nM,6/6
MISDLTTYGSRNKNSVA,DLSTRGS,QQYHRLPLS,730 pM,6/6
MISNVMNTLTRQGNNVA,DLQNRED,QQYFRLPLS,19 nM,6/6